One test deals with T1, CRF1R (Homo sapiens, UniProt P34998).
T1 sequence (P34998 24-415): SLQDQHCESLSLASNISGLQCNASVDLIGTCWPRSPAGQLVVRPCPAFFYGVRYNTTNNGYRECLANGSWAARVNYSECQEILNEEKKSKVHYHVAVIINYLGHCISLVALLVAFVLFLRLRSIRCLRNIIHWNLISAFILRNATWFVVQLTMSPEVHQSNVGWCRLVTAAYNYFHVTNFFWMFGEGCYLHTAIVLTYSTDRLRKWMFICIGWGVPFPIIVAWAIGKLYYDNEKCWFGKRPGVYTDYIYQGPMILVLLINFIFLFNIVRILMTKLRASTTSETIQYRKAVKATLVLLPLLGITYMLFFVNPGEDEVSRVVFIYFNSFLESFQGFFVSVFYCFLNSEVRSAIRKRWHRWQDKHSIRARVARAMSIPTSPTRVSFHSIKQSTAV
In words: CRF1R agonist activity (EC50, Emax), called comparative CRF binding. The format is cell-based. In short, it runs like this: (§1)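 Cells expressing only CRF1R or only CRF2R (or recombinant receptor) are contacted with peptide or vehicle control. Receptor activation is read as cAMP induction, measured in cell lysates or via a cAMP-responsive-element reporter gene such as luciferase.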

In a further test the target is T2, CRF2R (Homo sapiens, UniProt Q13324).
T2 sequence (Q13324 1-411): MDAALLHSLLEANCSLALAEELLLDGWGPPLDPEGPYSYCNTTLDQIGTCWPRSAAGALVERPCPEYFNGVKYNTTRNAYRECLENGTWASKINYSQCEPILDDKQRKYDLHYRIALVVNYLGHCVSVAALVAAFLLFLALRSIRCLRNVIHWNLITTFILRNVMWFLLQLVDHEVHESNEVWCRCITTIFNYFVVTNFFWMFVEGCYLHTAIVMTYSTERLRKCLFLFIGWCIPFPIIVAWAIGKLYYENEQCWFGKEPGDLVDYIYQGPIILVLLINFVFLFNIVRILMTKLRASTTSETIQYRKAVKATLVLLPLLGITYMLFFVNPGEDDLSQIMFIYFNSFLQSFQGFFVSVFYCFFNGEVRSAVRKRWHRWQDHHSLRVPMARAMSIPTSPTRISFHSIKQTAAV
In words: CRF2R agonist activity (EC50, Emax), called comparative CRF binding. Format: cell-based. The method, boiled down:
as §1

The values that follow come from patent US7192924B2, “Corticotropin releasing factor 2 receptor agonists” (priority 2002, dated 2007).

Read-outs that look alike come from different tables or passages of the source.

Take `CC[C@H](C)[C@H](NC(=O)[C@@H](NC(=O)[C@H](CC(=O)O)NC(=O)[C@H](CC(C)C)NC(=O)[C@H](CC(C)C)NC(=O)[C@H](CC(C)C)NC(=O)[C@H](CCCNC(=N)N)NC(=O)[C@H](CC(N)=O)NC(=O)[C@H](CC(N)=O)NC(=O)[C@H](C)NC(=O)[C@H](C)NC(=O)[C@H](CCC(N)=O)NC(=O)[C@H](CCC(N)=O)NC(=O)[C@H](CCCCN)NC(=O)[C@H](CCC(=O)O)NC(=O)[C@H](CCCCN)NC(=O)[C@H](CCC(=O)O)NC(=O)[C@H](CCC(N)=O)NC(=O)[C@H](CCCCN)NC(=O)[C@H](CCC(=O)O)NC(=O)[C@@H](NC(=O)[C@H](CCC(=O)O)NC(=O)[C@@H](NC(=O)[C@H](CCSC)NC(=O)[C@H](CCCCN)NC(=O)[C@H](CCCNC(=N)N)NC(=O)[C@H](CC(C)C)NC(=O)[C@H](CC(C)C)NC(=O)[C@H](Cc1ccccc1)NC(=O)[C@@H](NC(=O)[C@@H]1CCCN1C(=O)[C@H](CC(C)C)NC(=O)[C@H](CC(=O)O)NC(=O)[C@@H](NC(=O)[C@H](CO)NC(=O)[C@@H](NC(=O)[C@@H]1CCCN1C(=O)[C@@H]1CCCN1C(=O)CNC(=O)[C@@H]1CCC(=O)N1)[C@@H](C)CC)[C@@H](C)CC)[C@@H](C)O)[C@@H](C)CC)[C@@H](C)CC)[C@@H](C)O)C(N)=O` [compound 44]: the concentration giving a half-maximal response (EC50) at CRF1R (read-out: CRF1R EC50) is 944 nM; on CRF2R (read-out: CRF2R EC50), 19.1 nM.

Take `CC[C@H](C)[C@H](NC(=O)[C@@H](NC(=O)[C@H](CC(=O)O)NC(=O)[C@H](CC(C)C)NC(=O)[C@H](CC(C)C)NC(=O)[C@H](CC(C)C)NC(=O)[C@H](CCCNC(=N)N)NC(=O)[C@H](CC(N)=O)NC(=O)[C@H](CC(N)=O)NC(=O)[C@H](C)NC(=O)[C@H](C)NC(=O)[C@H](CCC(N)=O)NC(=O)[C@H](CCC(N)=O)NC(=O)[C@H](CCCCN)NC(=O)[C@H](CCC(=O)O)NC(=O)[C@H](CCCCN)NC(=O)[C@H](CCC(=O)O)NC(=O)[C@H](CCC(N)=O)NC(=O)[C@H](CCCCN)NC(=O)[C@H](CCC(=O)O)NC(=O)[C@@H](NC(=O)[C@H](CCC(=O)O)NC(=O)[C@@H](NC(=O)[C@H](CCSC)NC(=O)[C@H](CCCCN)NC(=O)[C@H](CCCNC(=N)N)NC(=O)[C@H](CC(C)C)NC(=O)[C@H](CC(C)C)NC(=O)[C@H](CC(C)C)NC(=O)[C@@H](NC(=O)[C@@H]1CCCN1C(=O)[C@H](CC(C)C)NC(=O)[C@H](CC(=O)O)NC(=O)[C@@H](NC(=O)[C@H](CO)NC(=O)[C@@H](NC(=O)[C@@H]1CCCN1C(=O)[C@@H]1CCCN1C(=O)CNC(=O)[C@@H]1CCC(=O)N1)[C@@H](C)CC)[C@@H](C)CC)[C@@H](C)O)[C@@H](C)CC)[C@@H](C)CC)[C@@H](C)O)C(N)=O` [compound 51]: the values for the EC50 at CRF1R and on CRF2R were over 1000 nM and 20.7 nM, respectively.

`CC[C@H](C)[C@H](NC(=O)[C@@H](NC(=O)[C@H](CC(=O)O)NC(=O)[C@H](CC(C)C)NC(=O)[C@H](CC(C)C)NC(=O)[C@H](CC(C)C)NC(=O)[C@H](CCCNC(=N)N)NC(=O)[C@H](CC(N)=O)NC(=O)[C@H](CC(N)=O)NC(=O)[C@H](C)NC(=O)[C@H](C)NC(=O)[C@H](CCC(N)=O)NC(=O)[C@H](CCC(N)=O)NC(=O)[C@H](CCCCN)NC(=O)[C@H](CCC(=O)O)NC(=O)[C@H](CCCCN)NC(=O)[C@H](CCC(=O)O)NC(=O)[C@H](CCC(N)=O)NC(=O)[C@H](CCCCN)NC(=O)[C@H](CCC(=O)O)NC(=O)[C@@H](NC(=O)[C@H](CCC(=O)O)NC(=O)[C@@H](NC(=O)[C@H](CCSC)NC(=O)[C@H](CCCCN)NC(=O)[C@H](CCCNC(=N)N)NC(=O)[C@H](CC(C)C)NC(=O)[C@H](CC(C)C)NC(=O)[C@H](Cc1ccc(O)cc1)NC(=O)[C@H](CCCCN)NC(=O)[C@@H]1CCCN1C(=O)[C@H](CC(C)C)NC(=O)[C@H](CC(=O)O)NC(=O)[C@@H](NC(=O)[C@H](CO)NC(=O)[C@@H](NC(=O)[C@@H]1CCCN1C(=O)[C@@H]1CCCN1C(=O)CNC(=O)[C@@H]1CCC(=O)N1)[C@@H](C)CC)[C@@H](C)CC)[C@@H](C)CC)[C@@H](C)CC)[C@@H](C)O)C(N)=O` [compound 58]: the EC50 at CRF1R was over 100 nM; at CRF2R, 71.6 nM.

As to `CC[C@H](C)[C@H](NC(=O)[C@@H](NC(=O)[C@H](CC(=O)O)NC(=O)[C@H](CC(C)C)NC(=O)[C@H](CC(C)C)NC(=O)[C@H](CC(C)C)NC(=O)[C@H](CCCNC(=N)N)NC(=O)[C@H](CC(N)=O)NC(=O)[C@H](CC(N)=O)NC(=O)[C@H](C)NC(=O)[C@H](C)NC(=O)[C@H](CCC(N)=O)NC(=O)[C@H](CCC(N)=O)NC(=O)[C@H](CCCCN)NC(=O)[C@H](CCC(=O)O)NC(=O)[C@H](CCCCN)NC(=O)[C@H](CCC(=O)O)NC(=O)[C@H](CCC(N)=O)NC(=O)[C@H](CCCCN)NC(=O)[C@H](CCC(=O)O)NC(=O)[C@@H](NC(=O)[C@H](CCC(=O)O)NC(=O)[C@@H](NC(=O)[C@H](CCSC)NC(=O)[C@H](CCCCN)NC(=O)[C@H](CCCNC(=N)N)NC(=O)[C@H](CC(C)C)NC(=O)[C@H](CC(C)C)NC(=O)[C@H](Cc1ccc(O)cc1)NC(=O)[C@H](CC(N)=O)NC(=O)[C@@H]1CCCN1C(=O)[C@H](CC(C)C)NC(=O)[C@H](CC(=O)O)NC(=O)[C@@H](NC(=O)[C@H](CO)NC(=O)[C@@H](NC(=O)[C@@H]1CCCN1C(=O)[C@@H]1CCCN1C(=O)CNC(=O)[C@@H]1CCC(=O)N1)[C@@H](C)CC)[C@@H](C)CC)[C@@H](C)CC)[C@@H](C)CC)[C@@H](C)O)C(N)=O` [compound 64], the EC50 at CRF1R (read-out: CRF1R EC50) stood at 68.9 nM; at CRF2R (read-out: CRF2R EC50), 63.3 nM.

On to `CC[C@H](C)[C@H](NC(=O)[C@@H](NC(=O)[C@H](CC(=O)O)NC(=O)[C@H](CC(C)C)NC(=O)[C@H](CC(C)C)NC(=O)[C@H](CC(C)C)NC(=O)[C@H](CCCNC(=N)N)NC(=O)[C@H](CC(N)=O)NC(=O)[C@H](CC(N)=O)NC(=O)[C@H](C)NC(=O)[C@H](C)NC(=O)[C@H](CCC(N)=O)NC(=O)[C@H](CCC(N)=O)NC(=O)[C@H](CCCCN)NC(=O)[C@H](CCC(=O)O)NC(=O)[C@H](CCCCN)NC(=O)[C@H](CCC(=O)O)NC(=O)[C@H](CCC(N)=O)NC(=O)[C@H](CCCCN)NC(=O)[C@H](CCC(=O)O)NC(=O)[C@@H](NC(=O)[C@H](CCC(=O)O)NC(=O)[C@@H](NC(=O)[C@H](CCSC)NC(=O)[C@H](CCCCN)NC(=O)[C@H](CCCNC(=N)N)NC(=O)[C@H](CC(C)C)NC(=O)[C@H](CC(C)C)NC(=O)[C@H](CCC(=O)O)NC(=O)[C@H](Cc1ccccc1)NC(=O)[C@@H]1CCCN1C(=O)[C@H](CC(C)C)NC(=O)[C@H](CC(=O)O)NC(=O)[C@@H](NC(=O)[C@H](CO)NC(=O)[C@@H](NC(=O)[C@@H]1CCCN1C(=O)[C@@H]1CCCN1C(=O)CNC(=O)[C@@H]1CCC(=O)N1)[C@@H](C)CC)[C@@H](C)CC)[C@@H](C)CC)[C@@H](C)CC)[C@@H](C)O)C(N)=O` [compound 67], for which the results for the EC50 at CRF1R and on CRF2R were 44.2 nM and 10 nM, respectively.

Broadly, the EC50 is the concentration giving half of the maximal effect.
